In the library only some 1.5% were active in any assay of this set; here they are far more common.
CASP6 VEID inh: inhibitors of human caspase-6; AID 686996; P55212; actives 0.53% (n = 350,000); inhibition, % at 12.5 µM; purified caspase-6, Z-VEID-R110 cleavage fluorescence;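 active = mean inhibition across replicates at least about 35%, with every replicate also reaching that limit, limit read from the data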;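 note: 0% = median of neutral control wells and 100% = no fluorescence left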
RAD52 anneal inh: RAD52 (human) annealing inhibition | P43351 | recombinant RAD52 DNA annealing, FRET fluorescence | inhibition, % at 18.7 µM | actives 0.46% (n = 360,000) | AID 651710;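 active = every replicate showing at least 50% inhibition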
GSIS activator: GLuc luminescence reporter in INS-1E cells, primary screen for activators of glucose-dependent secretion of insulin | INS-1E GLuc reporter insulin secretion, 2-3 h | activation, % at 16.6 µM | actives 0.61% (n = 370,000);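 active = lowest replicate activation of at least 40%, so every replicate reaches that level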;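 note: 0% = median of neutral control wells and 100% = median of IBMX positive control wells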
PglD inh: blocks C. jejuni PglD acetyltransferase activity; purified PglD enzyme, DTNB colorimetric CoA detection; AID 602405; inhibition, % at 12.5 µM; actives 0.098% (n = 360,000); in the data active = inhibition above about 16%, passing the limit was not always enough
Yeast UUG start: modulators of start codon recognition fidelity in yeast; AID 602363; activity score, % at 18.7 µM; S. cerevisiae UUG-firefly luciferase reporter, luminescence/redox ratio; 0.13% of 350,000 active;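 active = replicate mean at a twofold rise or more, about +100% in these data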;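 note: firefly luciferase made from a UUG start codon reports start codon fidelity; reporter light over untreated wells divided by growth signal over untreated wells; some hits fall short of that in this replicate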
RAD54 branch: RAD54 (human) branch migration inhibition; Q92698; inhibition, % at 10.4 µM; RAD54 Holliday junction branch migration, FAM/BHQ fluorescence; actives 0.14% (n = 360,000);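 active = mean normalized replicate activity at least 40 and at least half of replicates scoring 40 or more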;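 note: 0% = median of neutral control wells and 100% = median of positive control wells; inhibitors cause a drop in the FAM fluorescence signal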
RAD52 DNA ctr: DNA binding artifact in RAD52 counter-screen; actives 8% (n = 1,000); AID 652128; shares compounds with RAD52 anneal inh; AC50, µM; Salmon sperm DNA/acridine orange FP displacement;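 active = fitted half-maximal concentration for signal loss at or below twice the highest dose tested, in every separate run, actives reach about 64 µM in these data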
Numbers without * were called inactive; i = inactive; . = no result given; ! = repeats disagree.

no.	structure	PglD inh	GSIS activator	RAD54 branch	Yeast UUG start
1	COCCNc1nc(NCc2cccc(OC)c2)c2sc(-c3ccccc3)cc2n1	-4.7	3.7	-5.0	-11.0
2	CCC(=O)NC(=S)Nc1ccc(NC(=O)c2ccccc2[N+](=O)[O-])cc1	-7.5	16.6	-3.6	1.3
3	COc1nc(Nc2cccc(F)c2)nc(OC)n1	2.2	.	0.4	-9.9
4	COc1cc2nc(Nc3cccc(F)c3)nc(N)c2cc1OC	4.2	-12.7	36.0	-22.1
5	COc1cccc2cc(C(=O)N3CC(C)OC(C)C3)c(=O)oc12 (configuration not stated)	-3.5	7.7	-1.3	-6.6
6	COc1cc2c(oc(=O)c3cc(C)cc(OC)c32)c2c(C3OC(C)C(O)C(C)(O)C3O)ccc(O)c12 (configuration not stated)	.	.	.	.
7	Oc1ccccc1C=NCCN1CCN(CCN=Cc2ccccc2O)C1c1ccccc1O (configuration not stated)	0.7	-1.4	15.9	-23.2
8	Oc1ccccc1C=NCCN=Cc1ccccc1O	.	-0.6	.	.
9	Oc1ccccc1C=NCCCCCCN=Cc1ccccc1O	-1.2	-12.6	-15.7	-7.6
10	Cc1cnc(=O)[nH]c1SCC(=O)Nc1nccs1	-1.7	14.9	-6.7	-4.1
11	COCCNC(=O)COC(=O)/C=C/c1cnc2ccccc2n1	-5.3	.	-5.0	-18.0
12	CCN1CCc2c(sc(NC(=O)c3cc4ccccc4cc3OC)c2C(N)=O)C1	-2.5	-1.8	27.9	-2.9

no.	RAD52 DNA ctr	CASP6 VEID inh	RAD52 anneal inh
1	i	-0.5	80.2*
2	.	2.1	2.7
3	.	1.2	-5.1
4	i	-15.1	61.1*
5	.	3.8	-12.8
6	i	28.5	73.3*
7	i	-343.2	65.9*
8	.	-44.5	-3.9
9	i	-89.8	58.7*
10	.	-1.3	2.6
11	.	.	.
12	i	-2.2	75.7*

Continuation.
no.	structure	PglD inh	GSIS activator	RAD54 branch	Yeast UUG start
13	COc1cccc(OC)c1C(=O)Nc1sc2c(c1C(N)=O)CCN(Cc1ccccc1)C2	-2.0	.	-6.8	-0.6
14	CSc1ccc2c(c1)N(CCC1CCCCN1C)c1ccccc1S2 (configuration not stated)	5.1	.	16.4	1.2
15	CCN1CCN(Cc2ccc(NC(=O)c3ccc(C)c(NC(=O)c4ccc5n[nH]nc5c4)c3)cc2C(F)(F)F)CC1	-0.5	9.7	0.8	-20.7
16	CCN1CCN(Cc2ccc(NC(=O)c3ccc(C)c(NC(=O)c4ccnnc4)c3)cc2C(F)(F)F)CC1	-1.3	-6.3	-6.2	-12.5
17	CCN1CCN(Cc2ccc(NC(=O)c3ccc(C)c(NC(=O)C(=O)c4c[nH]c5ccccc45)c3)cc2C(F)(F)F)CC1	-2.7	16.2	5.4	34.9
18	CCN1CCN(Cc2ccc(NC(=O)c3cc(NC(=O)C(=O)c4c[nH]c5ccccc45)cc(OC)c3)cc2C(F)(F)F)CC1	-4.6	2.8	-7.5	-0.6
19	CCN1CCN(Cc2ccc(NC(=O)c3cccc(-c4ccc5nc(NC(=O)C6CC6)sc5n4)c3)cc2C(F)(F)F)CC1	.	143.1*	.	.
20	CCN1CCN(Cc2ccc(C(=O)Nc3ccc(C)c(NCc4cnc(NC(=O)OC)cn4)c3)cc2C(F)(F)F)CC1	-1.2	-4.9	-9.2	-0.2
21	COc1ccc(S(=O)(=O)Nc2ccc3c(c2)C(=O)N([C@H](C)CO)C[C@@H](C)[C@H](CN(C)Cc2ccccc2)OCCCC[C@@H](C)O3)cc1	-1.1	-3.9	7.2	31.8
22	Clc1ccc2[nH]c3c(c2c1)CNCC3	-0.6	1.1	10.9	-23.8
23	COc1ccc2[nH]c3c(c2c1)CNCC3	2.8	29.6	18.3	-10.8
24	CC(=O)Nc1ccc(S(=O)(=O)Nc2ccccc2C(=O)NCc2cccnc2)cc1	-2.0	-3.9	0.6	-11.4

no.	RAD52 DNA ctr	CASP6 VEID inh	RAD52 anneal inh
13	.	-3.4	-140.7
14	i	1.9	51.1*
15	.	-0.6	-10.7
16	.	-8.9	-16.1
17	i	-9.1	98.5*!
18	.	-9.6	-11.3
19	i	-7.9	66.6*
20	i	-30.8	96.5*!
21	.	.	.
22	i	-27.4	65.0*
23	.	-26.1	-32.2
24	.	-2.3	-15.8

(cont.)
no.	structure	PglD inh	GSIS activator	RAD54 branch	Yeast UUG start
25	CCO[C@H]1OC(C(=O)NC2CC2)=C[C@@H](C)[C@@H]1CCCO	0.0	-5.0	-4.3	-15.3
26	COC(=O)C[C@H]1C=C[C@H](NC(=O)Nc2ccc(C(F)(F)F)cc2)[C@H](CO)O1	-1.0	-0.8	1.0	.
27	Cc1ccc(-c2c[n+](CC(=O)Nc3nc(-c4ccc(F)cc4)cs3)c3n2CCC3)cc1	-5.5	-67.4	41.3	11.8
28	COc1ccccc1CNC(=S)Nc1ccc2nc(N3CCN(C)CC3)cc(C)c2c1	-2.1	-10.2	19.1	-18.5
29	Cc1cc(N2CCN(C)CC2)nc2ccc(NC(=S)NCCC(C)C)cc12	-5.4	6.9	27.6	-30.9
30	CCN1CCN(c2cc(C)c3cc(NC(=S)NCCCOC)ccc3n2)CC1	5.5	-2.6	21.2	-18.7
31	Cc1cc(N2CCOCC2)nc2ccc(NC(=S)NCCC(C)C)cc12	5.5	-21.9	5.8	-11.5
32	COCCNC(=S)Nc1ccc2nc(N3CCN(C)CC3)cc(C)c2c1	-5.3	1.3	22.1	-13.5
33	C[C@H]1CN([C@@H](C)CO)C(=O)c2c(c3ccccc3n2C)-c2ccccc2CO[C@@H]1CN(C)Cc1ccncc1	4.5	-16.8	-1.4	-2.8
34	COc1ccc(CCNCC(=O)N2C(C)CCCC2C)cc1OC (configuration not stated)	.	3.1	.	.
35	Cc1ccc(S(=O)(=O)N2CCN(CC(=O)Nc3ccccc3C(=O)NC3CC3)CC2)cc1	.	5.4	.	.
36	COc1ccc(NC(=O)c2cc([N+](=O)[O-])ccc2N2CCCC2)cc1S(N)(=O)=O	.	8.8	.	.

no.	RAD52 DNA ctr	CASP6 VEID inh	RAD52 anneal inh
25	.	-2.1	-3.0
26	.	-0.9	-8.9
27	i	12.4	58.0*
28	i	-1.2	77.1*
29	i	-14.7	61.1*
30	i	-48.6	61.4*
31	.	2.8	4.4
32	i	-33.6	52.4*
33	.	4.1	6.6
34	.	-1.2	-19.5
35	.	0.4	-18.5
36	.	3.5	-0.9

Additional results
no.	structure	PglD inh	GSIS activator	RAD54 branch	Yeast UUG start
37	Cc1cc(N2CCCC2)nc2ccc(NC(=S)NCCCOC(C)C)cc12	.	-1.5	.	.
38	CCN(CC)CCNC(=S)Nc1ccc2nc(N3CCCC3)cc(C)c2c1	.	13.6	.	.
39	C[C@H]1CN([C@@H](C)CO)C(=O)Cc2cc(NC(=O)Cc3ccccc3)ccc2O[C@@H]1CN(C)Cc1ccc(Oc2ccccc2)cc1	-1.6	1.7	4.7	8.8
40	Cc1c(CCOC(=O)c2cc([N+](=O)[O-])cc([N+](=O)[O-])c2)sc[n+]1CC(=O)c1ccc(Br)cc1	.	-4.5	.	.
41	Cc1c(CCOC(=O)c2ccc(Cl)cc2Cl)sc[n+]1CC(=O)c1ccccc1	.	-15.9	.	.
42	CN(C)C(=S)Nc1cccc(F)c1	5.7	-6.2	6.9	-19.2
43	C[n+]1ccccc1COc1ccc(C(C)(C)C)cc1	.	.	.	.
44	Nc1ccc2nc(-c3ccc(Cl)cc3)[nH]c2c1	0.0	.	7.3	2.8
45	O=C1CCCC2=C1C(c1cccc(Br)c1)n1nc(-c3ccco3)nc1N2 (configuration not stated)	0.5	6.9	2.2	-15.8

no.	RAD52 DNA ctr	CASP6 VEID inh	RAD52 anneal inh
37	i	.	57.6*
38	i	-53.1	75.7*
39	.	-1.1	-13.8
40	i	5.6	94.1*
41	.	0.6	36.7
42	.	5.1	-12.9
43	i	-38.6	99.4*
44	i	-0.6	50.9*
45	.	-0.2	-8.5

By substructure, the compounds so far with a Cl atom
no.	structure	PglD inh	GSIS activator	RAD54 branch	Yeast UUG start
22	Clc1ccc2[nH]c3c(c2c1)CNCC3	-0.6	1.1	10.9	-23.8
41	Cc1c(CCOC(=O)c2ccc(Cl)cc2Cl)sc[n+]1CC(=O)c1ccccc1	.	-15.9	.	.
44	Nc1ccc2nc(-c3ccc(Cl)cc3)[nH]c2c1	0.0	.	7.3	2.8

no.	RAD52 DNA ctr	CASP6 VEID inh	RAD52 anneal inh
22	i	-27.4	65.0*
41	.	0.6	36.7
44	i	-0.6	50.9*
